Laboratory results as given in article PMC5716713 (2017).

B1: GST-FAK-NT1 [human] / endogenous Akt1 of SW620 cells [human (endogenous in SW620)] (parent complex)
chain 1: MAAAYLDPNLNHTPNSSTKTHLGTGMERSPGAMERVLKVFHYFESNSEPTTWASIIRHGDATDVRGIIQKIVDSHKVKHVACYGFRLSHLRSEEVHWLHVDMGVSSVREKYELAHPPEEWKYELRI
chain 2: MSDVAIVKEGWLHKRGEYIKTWRPRYFLLKNDGTFIGYKERPQDVDQREAPLNNFSVAQCQLMKTERPRPNTFIIRCLQWTTVIERTFHVETPEEREEWTTAIQTVADGLKKQEEEEMDFRSGSPSDNSGAEEMEVSLAKPKHRVTMNEFEYLKLLGKGTFGKVILVKEKATGRYYAMKILKKEVIVAKDEVAHTLTENRVLQNSRHPFLTALKYSFQTHDRLCFVMEYANGGELFFHLSRERVFSEDRARFYGAEIVSALDYLHSEKNVVYRDLKLENLMLDKDGHIKITDFGLCKEGIKDGATMKTFCGTPEYLAPEVLEDNDYGRAVDWWGLGVVMYEMMCGRLPFYNQDHEKLFELILMEEIRFPRTLGPEAKSLLSGLLKKDPKQRLGGGSEDAKEIMQHRFFAGIVWQHVYEKKLSPPFKPQVTSETDTRYFDEEFTAQMITITPPDQDDSMECVDSERRPHFPQFSYSASGTA

Variants of: B1
Experiment: GST pull-down, western blot densitometry; n=8-19; parent: 1; read off a plot

Variant	ratio to parent
chain 1 MAAAYLDPNLNHTPNSSTKTHLGTGMERSPGAMERVLKVFHYFESNSEPTTWASIIRHGDATDVRGIIQKIVDSHKVKHVACYGFRLSHLRSEEVHWLHVDMGVSSVREKYEAAHAAEEWKYELRI [chain 1 L113A, chain 1 P116A, chain 1 P117A]	~2.1
chain 1 MAAAYLDPNLNHTPNSSTKTHLGTGMERSPGAMERVLKVFHYFESNSEPTTWASIIRHGDATDVRGIIQKIVDSHKVKHVACYGFRLSHLRSEEVHWLHVDMGVSSVREKYEAAHPPEEWKYELRI [chain 1 L113A]	~1.5
chain 1 MAAAYLDPNLNHTPNSSTKTHLGTGMERSPGAMERVLKVFHYFESNSEPTTWASIIRHGDATDVRGIIQKIVDSHKVKHVACYGFRLSHLRSEEVHWLHVDMGVSSVREKYEAAHCGEEWKYELRI [chain 1 L113A, chain 1 P116C, chain 1 P117G]	~2.4
chain 1 MAAAYLDPNLNHTPNSSTKTHLGTGMERSPGAMERVLKVFHYFESNSEPTTWASIIRHGDATDVRGIIQKIVDSHKVKHVACYGFRLSHLRSEEVHWLHVDMGVSSVREKYEAAHNKEEWKYELRI [chain 1 L113A, chain 1 P116N, chain 1 P117K]	~0.92
chain 1 MAAAYLDPNLNHTPNSSTKTHLGTGMERSPGAMERVLKVFHYFESNSEPTTWASIIRHGDATDVRGIIQKIVDSHKVKHVACYGFRLSHLRSEEVHWLHVDMGVSSVREKYELAHCPEEWKYELRI [chain 1 P116C]	~1

Further lines, results first:

ratio to parent	Variant
~0.56	chain 1 MAAAYLDPNLNHTPNSSTKTHLGTGMERSPGAMERVLKVFHYFESNSEPTTWASIIRHGDATDVRGIIQKIVDSHKVKHVACYGFRLSHLRSEEVHWLHVDMGVSSVREKYELAHPSEEWKYELRI [chain 1 P117S]
~1.3	chain 1 MAAAYLDPNLNHTPNSSTKTHLGTGMERSPGAMERVLKVFHYFESNSEPTTWASIIRHGDATDVRGIIQKIVDSHKVKHVACYGFRLSHLRSEEVHWLHVDMGVSSVREKYELAHPKEEWKYELRI [chain 1 P117K]
~1.4	chain 1 MAAAYLDPNLNHTPNSSTKTHLGTGMERSPGAMERVLKVFHYFESNSEPTTWASIIRHGDATDVRGIIQKIVDSHKVKHVACYGFRLSHLRSEEVHWLHVDMGVSSVREKYELAHGPEEWKYELRI [chain 1 P116G]
~1	chain 1 MAAAYLDPNLNHTPNSSTKTHLGTGMERSPGAMERVLKVFHYFESNSEPTTWASIIRHGDATDVRGIIQKIVDSHKVKHVACYGFRLSHLRSEEVHWLHVDMGVSSVREKYELAHNPEEWKYELRI [chain 1 P116N]
